Values of other authors in publication PMC11965407 (Translational Psychiatry, 2025).
Structures can show the parent of a compound that is named as a salt.

System: serotonin reuptake
Settings: oral administration, rats; cited from earlier work

In the case of `Fc1ccc([C@@H]2CCNC[C@H]2COc2ccc3c(c2)OCO3)cc1` [paroxetine, paroxetine hydrochloride], the “ED50, inhibition of serotonin reuptake” value is given as 1.9 mg/kg.
